Only a selection was taken, and hits are over-represented in it overall.
GIV-Gai inh – blocks GIV peptide binding to rat Galpha-i3. P08753. Galpha-i3/FITC-GIV peptide fluorescence polarization, 90 min; stronger effect = lower value; scaled: aluminum fluoride 0%, vehicle 100%. percent of control (FP), % (test concentration not listed). actives 0.42% (n = 210,000). AID 1224905;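 active means replicate mean at 85% of control or lower, very high polarization wells dropped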;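 further: wells of about 15 µL received 100 nL stock; the first replicate is given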
GIV-Gai FP conf – confirmation of inhibitors of GIV binding to rat Galpha-i3 | actives 38% (n = 580) | fluorescence polarization, mP at 100 µM | AID 1259350 | shares compounds with GIV-Gai inh | FITC-GIV peptide binding to Galphai3, fluorescence polarization; stronger effect = lower value;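 active means inhibition score of 15 or more, meaning 100 minus mean polarization as percent of control over three replicates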
GIV-Gai AS conf – GIV-Galpha-i3 inhibition, AlphaScreen confirmation; shares compounds with GIV-Gai inh; AlphaScreen Galphai3-GIV binding, purified proteins, 90 min; stronger effect = lower value; AlphaScreen counts at 100 µM; actives 39% (n = 580); AID 1259351;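 active means inhibition score at or above a set limit, where the score is 100 minus the three-replicate mean percent of control signal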
Numbers stand for hits; n = inactive.

SMILES	GIV-Gai inh	others
N#Cc1c2ccc(OCC(N)=O)cc2n2ccccc12	n
CCOC(=O)COc1ccc2c(C#N)c3ccccn3c2c1	43	GIV-Gai FP conf=n;GIV-Gai AS conf=n
CC(=O)Oc1c(C(C)(C)C)ccc(C(C)(C)C)c1O	n
COc1ccc(-c2onc3ccc4c5ccccc5oc4c23)cc1OC	n
Cc1c(C)n(-c2ccccc2)c2ncn(CCC(=O)NCc3ccccc3Cl)c(=O)c12	n
CCc1nc2sc(C(=O)Nc3cccc(C(F)(F)F)c3)c(N)c2cc1C	n
Cc1cc(C(F)(F)F)c2c(N)c(C(=O)c3ccc(Cl)s3)sc2n1	n
Cc1cc(C)c2c(N)c(C(=O)Nc3ccccc3)sc2n1	n
Cc1cc(C(F)(F)F)c2c(N)c(C(=O)Nc3cccc(C(F)(F)F)c3)sc2n1	82	GIV-Gai FP conf=n;GIV-Gai AS conf=n
COc1ccc(C(=O)c2sc3nc(C)cc(C(F)(F)F)c3c2N)cc1OC	62	GIV-Gai FP conf=n;GIV-Gai AS conf=n
COc1ccc(C(=O)c2sc3nc4c(c(C(F)(F)F)c3c2N)CN(C(C)=O)CC4)cc1OC	n
COc1cc(C2C(C(=O)N3CCCCC3)=C(C)NC3=C2C(=O)CCC3)cc(Br)c1O (stereo not given)	n
CCOc1ccc(C(C)NCCO)cc1 (stereo not given)	n
CSCCC(C(=O)O)N1C(=O)/C(=C/c2cccnc2)SC1=S (stereo not given)	n
Cc1ccc(/C=C2\SC(=S)N(C(Cc3ccccc3)C(=O)O)C2=O)cc1 (stereo not given)	n
O=C(O)C(c1ccccc1)N1C(=O)/C(=C/c2ccncc2)SC1=S (stereo not given)	80	GIV-Gai FP conf=n;GIV-Gai AS conf=n
O=C(CCNS(=O)(=O)c1ccc2nc(-c3ccccc3)[nH]c2c1)N1CCOCC1	n
Clc1ccc2c(c1)c1nc3ccccc3nc1n2Cc1nc2ccccc2o1	n
Cc1ccccc1N=C1C(=O)N(CN2CCCCC2)c2ccc(Br)cc21	n
Cc1nc(N2CCN(C)CC2)c2c(C)c(C(=O)Nc3c(F)cccc3F)sc2n1	n
COc1ccc(Cl)cc1NC(=O)c1sc2nc(C)nc(N3CCN(C)CC3)c2c1C	n
Cc1nc(N2CCN(C)CC2)c2c(C)c(C(=O)Nc3cccc(Cl)c3)sc2n1	n	GIV-Gai FP conf=n;GIV-Gai AS conf=n
Cc1ccc2c(c1)-c1nc3ccccc3cc1C2=O	n
Cc1ccccc1NS(=O)(=O)c1ccc2c(c1)CCN2C(=O)C1CCC1	n
O=C1/C(=C/c2cccnc2)CC/C1=C\c1cccnc1	n
SMILES	GIV-Gai inh	others
O=C1/C(=C/c2ccccc2)CCCc2ccccc21	n
O=C1/C(=C/c2cccnc2)CCC/C1=C\c1cccnc1	49	GIV-Gai FP conf=53;GIV-Gai AS conf=n
O=c1cc(CN2CCN(Cc3ccccc3)CC2)occ1OCc1cccc(F)c1	n
CCOC(=O)c1c(S(=O)(=O)NCC(=O)Nc2ccccc2)c(C)n(CC)c1C	n
CCc1c(C)c(C#N)c2nc3ccccc3n2c1N1CCN(CCO)CC1	n
Cc1c2c(n3c(nc4ccccc43)c1C#N)N(C1CCCC1)CC2	n
Cc1c2c(n3c(nc4ccccc43)c1C#N)N(CCN1CCOCC1)CC2	n	GIV-Gai FP conf=n;GIV-Gai AS conf=n
COc1ccc(-c2noc(CN(C(=O)CCc3ccccc3)C(C)C)n2)cc1	n
Clc1cccc(Cl)c1Cn1c2ccccc2c2nc3ccccc3nc21	n
CCOC(=O)c1c(C)c(S(=O)(=O)N2CCN(CC)CC2)c(C)n1C	n
CCCCCCCn1c(SC(C)C)nc2c1c(=O)[nH]c(=O)n2C	n
CNC(=O)N1CCc2cc(S(=O)(=O)Nc3cccc(Br)c3)ccc21	n
N#Cc1ccc(NC2=NS(=O)(=O)c3ccccc32)cc1	n	GIV-Gai FP conf=n;GIV-Gai AS conf=n
CC(=O)c1ccc(NC2=NS(=O)(=O)c3ccccc32)cc1	n
O=C(Oc1ccc(NC2=NS(=O)(=O)c3ccccc32)cc1)c1ccc(Br)cc1	n
O=C(Nc1ccc(Cl)cc1)c1ccc(CN2C(=O)CCn3nccc32)cc1	n
COC(=O)c1ccc(-c2c3c(nc4nc(N)[nH]c(=O)c24)-c2ccccc2C3=O)cc1	75	GIV-Gai FP conf=n;GIV-Gai AS conf=n
NC(=O)c1sc2nc3c(c(-c4ccc([N+](=O)[O-])cc4)c2c1N)C(=O)c1ccccc1-3	n
COC(=O)c1ccc(-c2ccccc2F)cc1	n
CCn1c(SC)nnc1C1CCCN(C(=O)c2ccccc2-c2ccccc2)C1 (stereo not given)	n
CCC1CCCCN1C(=O)c1sc2ncn(C)c(=O)c2c1C (stereo not given)	n
COC(=O)c1ccsc1NC(=O)c1cccc(C)c1	65	GIV-Gai FP conf=n;GIV-Gai AS conf=n
COC(=O)c1ccsc1NC(=O)c1ccc2c(c1)OCCO2	n
COC(=O)c1ccsc1NC(=O)c1cccc(S(C)(=O)=O)c1	n
COc1cccc(-n2c(-c3ccc(Cl)cc3)cn3c4c(=O)n(C)c(=O)n(C)c4nc23)c1	n

From PubChem
